Apparent affinities of Ab-14 variants for a coronavirus HR2 peptide

Binding partner: SARS-CoV-2 spike HR2 peptide, sequence PDVDLGDISGINAS.

Parent scFv Ab-14: VH joined to VL by a (GGGGS)3 linker. Changes lie in the light chain CDRs alone.
VH: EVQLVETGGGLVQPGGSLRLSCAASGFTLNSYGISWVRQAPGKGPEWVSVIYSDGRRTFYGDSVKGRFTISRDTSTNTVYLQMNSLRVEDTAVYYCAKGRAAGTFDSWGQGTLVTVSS
VL: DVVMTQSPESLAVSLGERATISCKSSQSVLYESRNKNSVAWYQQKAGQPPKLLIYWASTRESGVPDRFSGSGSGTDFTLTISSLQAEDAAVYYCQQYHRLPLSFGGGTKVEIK

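The variants were designed computationally from a first round of random CDR variants and then made and measured. Several design methods are mixed in this list. The scFvs were displayed on barcoded MATa yeast, the peptide on MATalpha yeast. Pairs that bind mate more often; barcode pairs of the diploids are counted by sequencing. Scores were corrected for input abundance and mapped to Kd with protein pairs of known affinity run in the same pool. The assay was run in six technical replicates.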

Variants are written as CDR1, CDR2 and CDR3 of the light chain (limits as in the source). Parent: KSSQSVLYESRNKNSVA, WASTRES, QQYHRLPLS. Kd is apparent (estimated from mating counts) and averaged on the log scale over replicates with a signal. Smaller is tighter. Where no diploid with the target was found in any replicate, the entry reads "no signal": below detection, most likely a poor binder, though not proof of it. Of ten entries with the parent sequence, four were seen in most replicates (averages 2.2 nM to 240 nM), three in one and three in none, so single entries are noisy. Some sequences occur more than once in the pool; their replicates are pooled. Background: pairings of all light chain designs with three empty control strains gave a value in 4% of cases (median 430 nM, 5th percentile 38 nM). Values in that range, when seen in few replicates, are hard to tell from nonspecific mating. In the paper, a design with two or fewer of six values counts as a poor binder. Values of this round are not directly comparable with the first-round values of the same sequences.

| CDR-L1 | CDR-L2 | CDR-L3 | apparent Kd | detected |
|---|---|---|---|---|
| HLGLAAMLEEYVRNSVA | NNSTREE | QQYDRLPLS | 120 nM | 2 of 6 |
| MLSEVLHMLGVQKNSIA | DLVIRAN | QQYHRLPLM | no signal | 0 of 6 |
| KLSEFMRGLMGRKDSIA | DNTTRGS | QQYDRLPLA | 3.3 nM | 6 of 6 |
| RVTIISDPYMENRNNIA | QTSLRAH | QQYQMLPLT | 640 pM | 6 of 6 |
| KFSQRVLYESRTKNSVA | NASTRES | QQYHRLPLT | 970 pM | 6 of 6 |
| KLLQTVMNETRNRNNVA | HMTTRED | QQYHSLPLS | 5.0 nM | 6 of 6 |
| KSSISWLIESRNKNSVA | EASTRES | QQYHRLPLS | 380 pM | 6 of 6 |
| HFDDLDVEWDANQSQVA | DHNEAQH | QQYARLPLS | 56 nM | 6 of 6 |
| KSSQSPLHDSRNKNSVA | WASTRES | QQYHRLPLS | 49 nM | 2 of 6 |
| KLMQSWLYESRMKNSVA | NASQRES | QQYHRLPLS | 1.8 nM | 6 of 6 |
| HISPSFMVESKLKNSVA | QTETRES | QQYDRLPLS | 1.8 nM | 6 of 6 |
| HMSMLTMLGSRNRNSVA | QMTTREN | QQYDRLPLA | 60 nM | 5 of 6 |
| KFSQSDLYESRNKNSVA | NGSTRES | QQYHRLPLS | 550 pM | 6 of 6 |
| MIAQGLRGVGRNKNSIA | NAQTRES | QHYHRLPLS | 1.7 µM | 1 of 6 |
| KLSISQLYESRNKNSVA | NASTRES | QQYHRLPLS | 660 pM | 6 of 6 |
| KLPQSELYESRNKNSVA | EASTRES | QQYHRLPLS | 1.6 nM | 6 of 6 |
| KSSQLVLYESRNKNSVA | WASTRES | QQYDRLPLS | no signal | 0 of 6 |
| KLSQSNLYESRNKNSVA | NASTRLS | QQYHRLPLS | 1.7 nM | 6 of 6 |
| KITSHEREGTADNYAMA | NADVSHD | QQYSRLPLF | 14 nM | 6 of 6 |
| SLIPFENQIMKDLNNIA | NTQVRAS | QQYMRLPFM | 1.4 nM | 6 of 6 |
| KSSQSVLVESRNKNSVA | DASTRES | QQYHRLPLS | 1.2 nM | 12 of 12 |
| IVSQLMLWGWHAKNSIA | EAQTRLN | QQYDRLPLF | no signal | 0 of 6 |
| KVSQSVMYESRNKNSVA | EASTRES | QQYHRLPLS | 1.5 nM | 6 of 6 |
| KFSQSVGYQERNKNSVA | DASTRES | QQYHRLPLS | 790 pM | 6 of 6 |
| KLSGSDLYESRNKNSVA | EASTRES | QQYHRLPLS | 880 pM | 6 of 6 |
| KISASVNYEMVNGQSVA | QMSTRES | QQYDRLPLS | 7.8 nM | 6 of 6 |
| NFGQKMALYTGQRQQIA | DSTVRAD | QQYSRLPLT | 1.9 nM | 6 of 6 |
| FLAYASDQTGLQKNNIA | QVNLLEN | QQYERLPLA | 6.4 nM | 6 of 6 |
| MLEEYQSYGAANLNAVA | DANCTMF | QQYYRLPIS | 2.3 nM | 6 of 6 |
| KITLIFSNKGNSRHSVA | NAETLAH | QQYYMLPLM | 830 nM | 4 of 6 |
| HVHMEMAEEKNIRYNIA | DASMRYA | QQYVRLPLG | 2.1 nM | 6 of 6 |
| KLPQSNLYESRNKNSVA | NASTREV | QQYHRLPLS | 540 pM | 6 of 6 |
| RIAEQYFEYMHNINNVA | EAECKAY | QQYAHLPLL | 18 nM | 6 of 6 |
| KLSQSMLYESRMKNSVA | NASTRLS | QQYHRLPLS | 1.7 nM | 6 of 6 |
| NVRLNEGEIDMHWYSIA | SVDIRAD | QQYSRLPLF | 7.0 nM | 6 of 6 |
| KLSQSDLYEDRNINSVA | NASQRCS | QQYHRLPLS | 1.3 nM | 6 of 6 |
| MVNGIMDHLSKNTNNVA | ETSTRNS | QQYDRLPLV | 3.3 nM | 6 of 6 |
| KVSQSNLYESRNANNVA | NGSLRES | QQYHRLPLS | 660 pM | 6 of 6 |
| KSSQSWGYESRNKNSVA | EASTRES | QQYHRLPLS | 170 pM | 6 of 6 |
| KMMQSQLYEDRASNAVA | HASQRES | QQYHRLPLS | 970 pM | 6 of 6 |
| KSSYSLTYESRNKNSVA | WASTRES | QFYHRLPLS | no signal | 0 of 6 |
| QLMGQGDHSIEHANSIA | NVDIVDM | QQYAHLPLS | 18 nM | 6 of 6 |
| KLSMITGHQLMQKNNVA | EMVTREN | QQYNRLPLS | 710 pM | 6 of 6 |
| KVSQSHDYESRNKNSVA | DASTRES | QQYHRLPLS | 600 pM | 6 of 6 |
| KVSPSQEYWSRNKQSVA | HASQREE | QQYHRLPLS | 2.1 nM | 6 of 6 |
| KSGCGVEYESRNKNSVA | GASTRES | QQYHRLPLS | 4.2 nM | 6 of 6 |
| KLSMITGHMSMSRNNVA | EMATREN | QQYDRLPLS | 7.6 nM | 1 of 6 |
| HFSQMLEPGAQNFNAVA | HGDRVTE | QQYHKLPLM | 860 nM | 3 of 6 |
| IFSQSVLMGNMTKNSVA | QASTRFN | QQYHRLPLI | 58 nM | 6 of 6 |
| KLSQSVLYESRNKNNVA | SASTRES | QQYHRLPLS | 380 pM | 6 of 6 |
| KLSQVTHSESKNKNSIA | EMVTREV | QQYDRLPLS | 5.8 nM | 6 of 6 |
| KISQSVLMEWRNKNSVA | EASTRES | QQYHRLPLS | 750 pM | 6 of 6 |
| KLEGSMLYESRNKNSVA | NASTRES | QQYHRLPLS | 470 pM | 6 of 6 |
| KLPQSVLYESRNKNSVA | NASTRMV | QQYHRLPLS | 860 pM | 6 of 6 |
| KSSQSVDYESRNKNSVA | WASTRES | QCYFRLPLS | no signal | 0 of 6 |
| KLSQSVWYESRNKNNVA | NASTRES | QQYHRLPLS | 2.9 nM | 6 of 6 |
| KISMMSTIESITHNSVA | QTSTRES | QQYDRLPLS | 2.0 nM | 6 of 6 |
| IIAENSDDLTEKQNSIA | ETSQVTQ | QQYHLLPLA | no signal | 0 of 6 |
| KIGQSVLYESRNKNSVA | KASTRES | QQYHRLPLS | 1.5 nM | 6 of 6 |
| KLSEIAHFESRKKNSVA | ENSTRES | QQYDHLPLS | 21 nM | 6 of 6 |
| KVSQSHLYESRNWNSVA | NASTRES | QQYHRLPLS | 4.0 nM | 6 of 6 |
| KVTFYMQGSNAMDNSIA | QTNIYHE | QQYGRLPLV | 160 nM | 3 of 6 |

Repeated from above, the 6 best binders with a signal in all replicates:

| CDR-L1 | CDR-L2 | CDR-L3 | apparent Kd | detected |
|---|---|---|---|---|
| KSSQSWGYESRNKNSVA | EASTRES | QQYHRLPLS | 170 pM | 6 of 6 |
| KLSQSVLYESRNKNNVA | SASTRES | QQYHRLPLS | 380 pM | 6 of 6 |
| KSSISWLIESRNKNSVA | EASTRES | QQYHRLPLS | 380 pM | 6 of 6 |
| KLEGSMLYESRNKNSVA | NASTRES | QQYHRLPLS | 470 pM | 6 of 6 |
| KLPQSNLYESRNKNSVA | NASTREV | QQYHRLPLS | 540 pM | 6 of 6 |
| KFSQSDLYESRNKNSVA | NGSTRES | QQYHRLPLS | 550 pM | 6 of 6 |

Values reported by Li et al. 2023, doi:10.1038/s41467-023-39022-2 (FLAb copy).